Legend:
[1] = tested on: L. monocytogenes invasion into Caco-2 cells; assay: L. monocytogenes invasion into Caco-2 cells (CFU assay, immunostaining); type: cell-based, Listeria monocytogenes
[2] = tested on: intracellular L. monocytogenes in Caco-2 cells; assay: Determination of intracellular viable bacteria (CFU assay); type: cell-based, Listeria monocytogenes; conditions: phloretin 58.34 μM during infection; Caco-2, MOI 100; 1, 3, 5 h

In the case of `O=C(CCc1ccc(O)cc1)c1c(O)cc(O)cc1O` [phloretin], the “ability of EGDe bacteria to invade cells (CFU assay)” value ([1]; EGDe pre-treated with phloretin 58.34 μM, Caco-2, MOI 100, 1 h post-infection) is reported as “significantly diminished ability to invade cells”, the “ability of EGDe bacteria to invade cells (CFU assay)” value ([1]; no pre-treatment, phloretin 58.34 μM only during infection, Caco-2, 1 h post-infection) is reported as “this inhibition was not observed” and the “entry of EGDe bacteria into host cells (immunostaining)” value ([1]; pre-treatment with phloretin 58.34 μM, Caco-2, 1 h post-infection) is reported as “significantly reduced the entry”. The “multiplication of intracellular bacteria” value [2] was “significantly reduced the multiplication of intracellular bacteria”.

Reference: publication PMC5244253, “Phloretin Attenuates Listeria monocytogenes Virulence Both In vitro and In vivo by Simultaneously Targeting Listeriolysin O and Sortase A” (Frontiers in Cellular and Infection Microbiology, 2017)
